The numbers were not newly measured in US5578725A, “Delta opioid receptor antagonists” (priority 1995, dated 1996), which cites them from elsewhere.

By UniProt entry, the sequences of proteins in these tests, tags left out. Where a name states a change or a piece, a line headed by the entry shows the natural chain unless it says otherwise. Residues count along the entry.
UniProt A0A286XTF2, 1-366: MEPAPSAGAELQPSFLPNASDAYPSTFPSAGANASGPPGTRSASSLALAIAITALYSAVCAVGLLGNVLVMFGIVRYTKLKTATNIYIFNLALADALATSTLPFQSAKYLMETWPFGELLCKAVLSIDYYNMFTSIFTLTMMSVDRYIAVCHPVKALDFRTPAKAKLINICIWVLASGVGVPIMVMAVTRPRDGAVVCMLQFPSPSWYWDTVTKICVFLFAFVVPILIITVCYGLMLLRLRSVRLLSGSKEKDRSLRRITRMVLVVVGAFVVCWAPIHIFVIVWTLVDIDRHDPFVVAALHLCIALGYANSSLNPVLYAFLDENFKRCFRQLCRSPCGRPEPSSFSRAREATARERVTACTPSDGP

The target in this series is T1, δ1 (Cavia porcellus, UniProt A0A286XTF2).
T1 construct: Guinea Pig Brain Membranes; from tissue; host or cells: guinea pig brain membranes
To be noted: read-out: Ki δ1; data from Portoghese et al.; cited from earlier work.

In the case of `Oc1ccc2c3c1O[C@H]1c4[nH]c5ccccc5c4C[C@@]4(O)[C@@H](C2)N(CC2CC2)CC[C@]314` [Compound 1, naltrindole], the Ki (usually the equilibrium dissociation constant of an inhibitor or competing ligand from its target) was 0.03 nM.
